Compound activity deposited in PubChem by National Center for Advancing Translational Sciences (NCATS).
This is a sample that favours compounds with a hit; in the whole collection about 3.7% have one here.
Nrf2 inh = blocks Nrf2 signaling; A549 ARE-Fluc reporter, luciferase luminescence, 18-24 h; Potency, µM (doses to about 46 µM), for inactives: at the top dose activity change, negative = inhibition, actives largely listed as inhibitors; 360,000 compounds, 2.1% hits; further: potency means the concentration at half of the fitted maximal effect; on the % scale 0 is the no-effect control and ±100 the full control effect; nearly all actives have a fitted effect of over 60% in size
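A549 ARE_Fluc cells (5000/well, 5% FBS OPTI-MEM) pre-incubated 2 h, then treated with compounds 18-24 h at 37C/5% CO2 in concentration-response. CellTiter-Fluor viability read first; BugLite luciferase luminescence after 15 min at room temperature gives Nrf2 activity.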
miR-21 reporter = raises the signal of a miR-21 reporter | HeLa miR-21 FLuc reporter, luciferase, 48 h | Potency, µM (highest dose often 38.3 µM), inactives show at the highest dose reporter change, positive = more light | 340,000 tested, under 10 active | AID 2288; active = well fitted rising curve with a large enough effect; inconclusive = small, poorly fitted or top-dose-only effect; inactive = no such curve, though single readings can be large or run the other way;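 note: % of control where 0% means no effect; miR-21 action dims this reporter so a rising signal means less miR-21 action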
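Using DMEM plus 10% FBS, HeLa miR-21-FLuc cells are incubated with test compounds (final up to about 40uM) for 48 hours; firefly luciferase signal is then imaged following reagent-mediated lysis.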
Nrf2 activator = activators of Nrf2 (ARE) signaling; 410,000 compounds, 0.31% hits; Potency, µM (top dose mostly 46.1 µM), inactives show at the top dose activation, most hits filed as activators; AREc32 ARE-luciferase reporter (MCF7-derived line), luminescence, 24 h; further: potency means the concentration at half of the fitted maximal effect; % of control where 0% means no effect; nearly all actives have a fitted effect of over 65% in size
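Luciferase luminescence (Steady-Glo, 30 min at room temperature) served as the read-out of ARE activation in AREc32 cells treated with compounds for 24 hr at 37 deg C.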
ClpP mod = qHTS Assay for Activators of ClpP. Potency, µM (top dose mostly 57.5 µM), for inactives: at the highest dose activity change, negative = active. AID 651965, 2013. ATP-dependent Clp protease proteolytic subunit (Bacillus subtilis (strain 168)), P80244. 340,000 compounds, 1.9% hits. purified B. subtilis ClpP, FRET peptide cleavage, 20 min; active means well fitted falling curve with a large enough effect; inconclusive means small, poorly fitted or top-dose-only effect; inactive means no such curve, though single readings can be large or run the other way; further: potency means the concentration at half of the fitted maximal effect; the source files actives as falling curves though it sought activators and does not explain the sign; nearly all actives have a fitted effect of over 65% in size
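ClpP 10 microg/mL final, pH 8 Tris/KCl buffer with BSA, glycerol, Tween-20; compound pinned in; FRET-FV substrate; RT 20 min; Ex320/Em430; ΔFRET vs ADEP 5.8 microM, DMSO, no enzyme.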
A549 tox-1 = counter-screen for Nrf2 inhibitors: cytotoxicity in A549 cells. A549 ARE-Fluc cells, CellTiter-Fluor viability, 18-24 h. Potency, µM (doses to about 46 µM), for inactives: at the top dose activity change, negative = cytotoxicity, usual class: inhibitors. 390,000 compounds, 0.16% hits. AID 504648; further: potency means the concentration at half of the fitted maximal effect; on the % scale 0 is the no-effect control and ±100 the full control effect
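Cytotoxicity counterscreen: CellTiter-Fluor fluorescence was measured in A549 ARE_Fluc cells after 18-24 h of compound exposure in a concentration series. The subsequent BugLite luminescent read reports ARE-luciferase activity.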
TCR act = activators of T cell receptors. primary human leukocytes, anti-CD3, IL-2 HTRF, 48 h. Potency, µM (top dose mostly 9.22 µM), for inactives: at the top dose activation of IL-2 secretion, usual class: activators. 330,000 tested, under 10 active. AID 504894; further: % of control where 0% means no effect
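Compounds are tested in HTS on primary human leukocytes co-incubated with a-CD3 beads for 48 hr. IL-2 output is measured by time-resolved FRET.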
FLuc enzyme inh = firefly luciferase inhibition, Nrf2 hit validation | purified firefly luciferase, luminescence inhibition | AID 720522 | shares compounds with Nrf2 inh | 1,400 compounds, 4% hits | Potency, µM (series often up to 57.5 µM), for inactives: at the top dose activity change, negative = inhibition, usual class: inhibitors; further: potency means the concentration at half of the fitted maximal effect; on the % scale 0 is the no-effect control and ±100 the full control effect; nearly all actives have a fitted effect of over 65% in size
A549 tox-2 = A549 cytotoxicity, Nrf2 inhibitor counterscreen | A549 ARE-Fluc cells, cytotoxicity counterscreen | Potency, µM (series often up to 46.1 µM), for the others: top-dose activity change, negative = cytotoxicity, most hits filed as inhibitors | shares compounds with Nrf2 inh | 1,400 compounds, 2% hits;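 further: potency means the concentration at half of the fitted maximal effect; cells exposed to compounds for 18 to 24 hours; on the % scale 0 is the no-effect control and ±100 the full control effect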
Nrf2 ARE inh = Nrf2 inhibition confirmed, A549 ARE-luciferase. Potency, µM (series often up to 46.1 µM), without a hit: at the highest dose activity change, negative = inhibition, actives largely listed as inhibitors. 1,400 compounds, 74% hits. shares compounds with Nrf2 inh. A549 ARE-firefly luciferase reporter, luminescence; further: potency means the concentration at half of the fitted maximal effect; on the % scale 0 is the no-effect control and ±100 the full control effect; nearly all actives have a fitted effect of over 65% in size
The depositor's hits bear a star; ? = inconclusive; . = not tested or not shown; [ ] = remark or other dose. Unless noted, the call rests on the fitted dose curve; in most records, active means well fitted curve in the direction sought with a large enough effect; inconclusive means small, poorly fitted or top-dose-only effect, or another doubt; inactive means no such curve, though single readings can be large; an effect the other way counts as inactive or inconclusive.

1. O=[N+]([O-])c1ccc(O)c(-c2nc(-c3ccccc3)c(-c3cccs3)[nH]2)c1
2. O=C(NC(Cc1ccccc1)C(=O)N1CCN(c2ccccc2O)CC1)c1ccccc1 (centres undefined)
3. CC(C)(C)OC(=O)NCCCC[C@H](NC(=O)c1nc[nH]c1C(=O)NC(c1ccccc1)c1ccccc1)C(=O)OC(C)(C)C
4. CC(C)(C)OC(=O)NCCCC[C@H](NC(=O)c1nc[nH]c1C(=O)N[C@@H](CCCCNC(=O)OC(C)(C)C)C(=O)OC(C)(C)C)C(=O)OC(C)(C)C
5. CCCCCn1c(=O)[nH]c2cc(C(=O)Nc3cc(OC)cc(OC)c3)ccc2c1=O
6. Cc1cc2sc3ccc(C#CC4(O)CCCCC4)cc3c(=O)c2cc1C
7. Cn1c2ccccc2c(=O)c2cc(C#CC3(O)CCCCC3)ccc21
8. CC[N+](CC)(CC)c1ccc(/C=C/c2ccc3ccccc3n2)cc1

| assay / compound | 1 | 2 | 3 | 4 | 5 | 6 | 7 | 8 |
| --- | --- | --- | --- | --- | --- | --- | --- | --- |
| Nrf2 inh | 3.7µM* | ? | 3.7µM* | ? | -15%[9.27 µM] | 0.21µM* | ? | . |
| miR-21 reporter | 6% | . | 22% | 22% | 6% | . | -17% | . |
| Nrf2 activator | 1% | 0% | 4% | 0% | -1% | -1% | 0% | . |
| ClpP mod | -2% | . | -8% | 1% | -4% | -7% | 4% | -2% |
| A549 tox-1 | . | -4% | ? | -14% | -14% | -4% | 4% | . |
| TCR act | 3% | 2% | 4% | -1% | . | 2% | -5% | . |
| FLuc enzyme inh | -16% | . | 0% | . | . | 0.085µM* | . | 24µM* |
| A549 tox-2 | ? | . | ? | . | . | -17% | . | 9.2µM* |
| Nrf2 ARE inh | 21µM* | . | 21µM* | . | . | 9.2µM* | . | 2.1µM* |

9. Oc1ccc(/C=C/c2ccc3ccccc3n2)cc1
10. C(=C\c1ccc2ccccc2n1)/c1ccccc1
11. CCN(CC)c1ccc(C(=O)NCc2ccc3c(c2)CCN3C(=O)c2ccccc2)cc1
12. CN1/C(=C/c2cc[n+](C)c3ccccc23)C=Cc2ccccc21
13. Cc1cccc[n+]1CC(=O)/C=C1\N(C)c2ccccc2C1(C)C
14. CN1/C(=C\C(=O)C[n+]2cccc(Br)c2)C(C)(C)c2ccccc21
15. CN1/C(=C\C(=O)C[n+]2ccc(C(=O)c3ccccc3)cc2)C(C)(C)c2ccccc21
16. O=C(Nc1ncc(Cc2ccc(C(F)(F)F)cc2)s1)c1ccc(-c2cccc([N+](=O)[O-])c2)o1

| assay / compound | 9 | 10 | 11 | 12 | 13 | 14 | 15 | 16 |
| --- | --- | --- | --- | --- | --- | --- | --- | --- |
| Nrf2 inh | 11% | ? | . | 1.2µM* | 5.2µM* | 3.3µM* | 5.2µM* | 5.8µM* |
| miR-21 reporter | 25% | 17% | 23% | ? | 26% | ? | 18% | -11% |
| Nrf2 activator | 0% | 16% | -1% | 0% | 0% | 0% | 0% | 0%[9.22 µM] |
| ClpP mod | 4% | -28% | ? | . | 0% | 1% | 0% | -1% |
| A549 tox-1 | -8% | 0% | -2% | 21µM* | ? | -23% | -19% | -5% |
| TCR act | -9% | -2% | . | 3% | -4% | . | -5% | 5%[46.1 µM] |
| FLuc enzyme inh | . | 3% | . | ? | 3% | -1% | -1% | 2% |
| A549 tox-2 | . | ? | . | ? | -27% | -11% | -17% | -1% |
| Nrf2 ARE inh | . | 7.3µM* | . | 6.5µM* | 7.3µM* | 4.1µM* | 5.2µM* | 6.5µM* |

17. CS(=O)(=O)Nc1cccc(-c2ccc3nncn3c2)c1
18. COc1ccc(OC)c(/C=C/c2cc3ccccc3c[n+]2C)c1
19. COc1cc(OC)c(/C=C/c2cc3ccccc3c[n+]2C)c(OC)c1
20. COc1ccccc1CNS(=O)(=O)c1ccc(-c2cc(C)no2)cc1
21. COc1cc(NS(=O)(=O)c2ccc(-c3cc(C)no3)cc2)cc(OC)c1
22. Cc1cccc(-c2noc(CN(C(=O)COc3ccc(C(C)C)cc3)C(C)C)n2)c1
23. COc1cc(CN(C)c2ncnc3sccc23)ccc1OC(F)F
24. COc1ccc(OC)c(Nc2ncnc3sccc23)c1

| assay / compound | 17 | 18 | 19 | 20 | 21 | 22 | 23 | 24 |
| --- | --- | --- | --- | --- | --- | --- | --- | --- |
| Nrf2 inh | . | . | . | 1% | 6.5µM* | ? | 9.2µM* | 0% |
| miR-21 reporter | . | . | . | 24% | ? | 12% | 10% | -28% |
| Nrf2 activator | 3% | . | . | 0% | 1% | 1% | 3% | 4% |
| ClpP mod | -3% | -1% | -2% | 0% | -6% | 0% | 1% | -3% |
| A549 tox-1 | . | . | . | 0% | -4% | -13% | -16% | 0% |
| TCR act | . | . | . | 0% | . | . | -16% | 5% |
| FLuc enzyme inh | . | -27% | 3% | . | -2% | . | -4% | . |
| A549 tox-2 | . | -18% | ? | . | -19% | . | 1% | . |
| Nrf2 ARE inh | . | . | 4.6µM* | . | 16µM* | . | 8.2µM* | . |

25. CC(=O)N(C)c1ccc(OCC(O)Cn2c(C)nc3ccccc32)cc1 (centres undefined)
26. CC(=O)Nc1ccc(OCC(O)Cn2c(C)nc3ccccc32)cc1 (centres undefined)
27. Clc1ccc(N2CCN(c3ncnc4c3nc3n4CCCC3)CC2)cc1
28. O=C(CCCc1nc(-c2ccc(Cl)cc2)no1)NC1CCCC1
29. O=C(CCc1nc(-c2ccc(Cl)cc2)no1)NC1CCCCC1
30. CCN(CC)c1ccc(/C=C/c2ccnc3ccccc23)cc1
31. CCN(CC)c1ccc(/C=C/c2ccccn2)cc1
32. Clc1ccc(/C=C/c2ccnc3ccccc23)c(Cl)c1

| assay / compound | 25 | 26 | 27 | 28 | 29 | 30 | 31 | 32 |
| --- | --- | --- | --- | --- | --- | --- | --- | --- |
| Nrf2 inh | 9.2µM* | -16% | 4.6µM* | 4.1µM* | ? | . | . | . |
| miR-21 reporter | 19% | 8% | 16% | 9% | 0% | . | . | . |
| Nrf2 activator | 0% | 0% | 0% | -1% | 0% | . | . | . |
| ClpP mod | . | -3% | 0% | -1% | 0% | 4% | 2% | -7% |
| A549 tox-1 | -18% | 5% | -4% | -17% | -10% | . | . | . |
| TCR act | -1% | -111% | . | 2% | 2% | . | . | . |
| FLuc enzyme inh | 1% | . | 4% | 2% | . | ? | -13% | ? |
| A549 tox-2 | 7% | . | -2% | -4% | . | -12% | 9.2µM* | -6% |
| Nrf2 ARE inh | ? | . | 1.5µM* | 5.2µM* | . | 15µM* | 1.6µM* | ? |

33. O=[N+]([O-])c1cccc(/C=C/c2ccccn2)c1
34. C(=C\c1ccccn1)/c1ccccc1
35. CN(C)c1ccc(/C=C/c2ccccn2)cc1
36. Clc1ccc(/C=C/c2ccnc3ccccc23)cc1
37. Brc1ccc(/C=C2\C=Cc3ccccc32)cc1
38. Cc1ccccc1C(=O)Nc1nnc(S(=O)(=O)N(C)Cc2ccc(Cl)cc2)s1

| assay / compound | 33 | 34 | 35 | 36 | 37 | 38 |
| --- | --- | --- | --- | --- | --- | --- |
| Nrf2 inh | ? | . | . | . | . | -11% |
| miR-21 reporter | -11% | . | . | . | . | 2% |
| Nrf2 activator | ? | . | . | . | . | 0% |
| ClpP mod | -1% | -5% | 0% | 4% | 1% | -8% |
| A549 tox-1 | ? | . | . | . | . | 8% |
| TCR act | -5% | . | . | . | . | . |
| FLuc enzyme inh | . | 0% | . | . | . | . |
| A549 tox-2 | . | -33% | . | . | . | . |
| Nrf2 ARE inh | . | 10µM* | . | . | . | . |

3 of the compounds above, as labelled records.
36: Clc1ccc(/C=C/c2ccnc3ccccc23)cc1
  Nrf2 inh: .
  miR-21 reporter: .
  Nrf2 activator: .
  ClpP mod: 4%
  A549 tox-1: .
  TCR act: .
  FLuc enzyme inh: .
  A549 tox-2: .
  Nrf2 ARE inh: .
37: Brc1ccc(/C=C2\C=Cc3ccccc32)cc1
  Nrf2 inh: .
  miR-21 reporter: .
  Nrf2 activator: .
  ClpP mod: 1%
  A549 tox-1: .
  TCR act: .
  FLuc enzyme inh: .
  A549 tox-2: .
  Nrf2 ARE inh: .
38: Cc1ccccc1C(=O)Nc1nnc(S(=O)(=O)N(C)Cc2ccc(Cl)cc2)s1
  Nrf2 inh: -11%
  miR-21 reporter: 2%
  Nrf2 activator: 0%
  ClpP mod: -8%
  A549 tox-1: 8%
  TCR act: .
  FLuc enzyme inh: .
  A549 tox-2: .
  Nrf2 ARE inh: .
